# B1: ADP-ribosylation factor-like protein 2 (Homo sapiens), P36404 (parent)
# chain: MGLLTILKKMKQKERELRLLMLGLDNAGKTTILKKFNGEDIDTISPTLGFNIKTLEHRGFKLNIWDVGGQKSLRSYWRNYFESTDGLIWVVDSADRQRMQDCQRELQSLLVEERLAGATLLIFANKQDLPGALSSNAIREVLELDSIRSHHWCIQGCSAVTGENLLPGIDWLLDDISSRIFTAD
# partner: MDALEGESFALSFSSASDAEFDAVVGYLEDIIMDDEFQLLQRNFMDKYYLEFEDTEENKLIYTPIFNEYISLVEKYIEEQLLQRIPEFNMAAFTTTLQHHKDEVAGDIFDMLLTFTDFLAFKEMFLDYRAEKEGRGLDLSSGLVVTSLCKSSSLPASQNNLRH
# Variants of: B1
# Settings: with ar2bp_human ARL2BP
row,Variant,effect of a mutation on the interaction
1,MGALTILKKMKQKERELRLLMLGLDNAGKTTILKKFNGEDIDTISPTLGFNIKTLEHRGFKLNIWDVGGQKSLRSYWRNYFESTDGLIWVVDSADRQRMQDCQRELQSLLVEERLAGATLLIFANKQDLPGALSSNAIREVLELDSIRSHHWCIQGCSAVTGENLLPGIDWLLDDISSRIFTAD [L3A],disrupting interaction strength
2,MGDLTILKKMKQKERELRLLMLGLDNAGKTTILKKFNGEDIDTISPTLGFNIKTLEHRGFKLNIWDVGGQKSLRSYWRNYFESTDGLIWVVDSADRQRMQDCQRELQSLLVEERLAGATLLIFANKQDLPGALSSNAIREVLELDSIRSHHWCIQGCSAVTGENLLPGIDWLLDDISSRIFTAD [L3D],disrupting interaction strength
3,MGLDTILKKMKQKERELRLLMLGLDNAGKTTILKKFNGEDIDTISPTLGFNIKTLEHRGFKLNIWDVGGQKSLRSYWRNYFESTDGLIWVVDSADRQRMQDCQRELQSLLVEERLAGATLLIFANKQDLPGALSSNAIREVLELDSIRSHHWCIQGCSAVTGENLLPGIDWLLDDISSRIFTAD [L4D],disrupting interaction
4,MGLLTRLKKMKQKERELRLLMLGLDNAGKTTILKKFNGEDIDTISPTLGFNIKTLEHRGFKLNIWDVGGQKSLRSYWRNYFESTDGLIWVVDSADRQRMQDCQRELQSLLVEERLAGATLLIFANKQDLPGALSSNAIREVLELDSIRSHHWCIQGCSAVTGENLLPGIDWLLDDISSRIFTAD [I6R],disrupting interaction
5,MGLLTIDKKMKQKERELRLLMLGLDNAGKTTILKKFNGEDIDTISPTLGFNIKTLEHRGFKLNIWDVGGQKSLRSYWRNYFESTDGLIWVVDSADRQRMQDCQRELQSLLVEERLAGATLLIFANKQDLPGALSSNAIREVLELDSIRSHHWCIQGCSAVTGENLLPGIDWLLDDISSRIFTAD [L7D],disrupting interaction
6,MGLLTILKKMKQKERELRLLMLGLDNAGKTTILKKFNGEDIDTISPTLGANIKTLEHRGFKLNIWDVGGQKSLRSYWRNYFESTDGLIWVVDSADRQRMQDCQRELQSLLVEERLAGATLLIFANKQDLPGALSSNAIREVLELDSIRSHHWCIQGCSAVTGENLLPGIDWLLDDISSRIFTAD [F50A],disrupting interaction
7,MGLLTILKKMKQKERELRLLMLGLDNAGKTTILKKFNGEDIDTISPTLGFNIKTLEHRGFKLNIWDVGGQKSLRSYWRNAFESTDGLIWVVDSADRQRMQDCQRELQSLLVEERLAGATLLIFANKQDLPGALSSNAIREVLELDSIRSHHWCIQGCSAVTGENLLPGIDWLLDDISSRIFTAD [Y80A],disrupting interaction
